## Experimental vapor pressure values from OPERA 2.9

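These are experimental values that the OPERA curators gathered from public databases to train and test their QSAR models. One number stands for a compound and property, with no spread given. Conditions of the individual experiments are not part of the data. A value may pool stereoisomers or salt forms, and the file does not say which form was measured. Some upstream entries may be estimates or bounds without being marked so.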

Vapor pressures (log10 mmHg) refer to near room temperature, 15 to 30 °C; higher is more volatile.
Cells with "n/a" have no entry in this list.

compound,name,vapor pressure (log10 mmHg)
Brc1cc(Br)c(Oc2c(Br)cc(Br)c(Br)c2Br)cc1Br,"2,2',3,4,4',5',6-Heptabromodiphenyl ether",-8.455
IC[C@H]1CC[C@H](CI)CC1,"trans-1,4-Bis(iodomethyl)cyclohexane",-5.576
CC1CC(OC(=O)c2ccccc2O)CC(C)(C)C1 (stereo not drawn),"3,3,5-Trimethylcyclohexyl salicylate",-3.98
CCCCC(CC)CCC(C)c1ccc2cccnc2c1O (stereo not drawn),"8-Quinolinol, 7-(4-ethyl-1-methyloctyl)-",-4.811
CCCC(C)C(=O)OCC (stereo not drawn),Ethyl 2-methylpentanoate,0.754
O=C=NCCCCCN=C=O,n/a,-1.62
CCCOC(F)(F)C(F)(F)C(F)(F)C(F)(F)F,"1,1,1,2,2,3,3,4,4-Nonafluoro-4-propoxybutane",1.711
ClC1CCCC1,"Cyclopentane, chloro-",1.474
Clc1cc(-c2c(Cl)cccc2Cl)cc(Cl)c1Cl,"2,3',4',5',6-Pentachlorobiphenyl",-4.854
CCCCC(CC)CN(CCO)CC(CC)CCCC (stereo not drawn),2-[Bis(2-ethylhexyl)amino]ethan-1-ol,-3.523
COC(=O)c1ccc(C(=O)OC)c(C(=O)OC)c1,"Trimethyl benzene-1,2,4-tricarboxylate",-4.75
CC(CCO)CCCC(C)(C)O (stereo not drawn),"3,7-Dimethyloctane-1,7-diol",-3.986
N#Cc1ccccc1O,2-Hydroxybenzonitrile,-2.894
Cc1ccc2c(=O)[nH]c(=O)oc2c1,"7-Methyl-2H-1,3-benzoxazine-2,4(3H)-dione",-6.979
CCCOC(=O)c1cc(O)c(O)c(O)c1,Gallic acid n-propyl ester,-6.389
CCC[C@H]1CC[C@H]([C@H]2CO[C@H](c3cc(F)c(C(F)(F)Oc4cc(F)c(F)c(F)c4)c(F)c3)OC2)CC1,n/a,-7.226
COc1ccc(Oc2ccc(NC(=O)N(C)C)cc2)cc1,Difenoxuron,-2.046
CC(CC(C)(C)C)CP(=O)(O)CC(C)CC(C)(C)C (stereo not drawn),"P,P-Bis(2,4,4-trimethylpentyl)phosphinic acid",-4.745
CC(C)C(=O)OCCOc1ccccc1,2-Phenoxyethyl isobutyrate,-2.238
CCCCCCC(O)CCCCCCCCCCC(=O)O (stereo not drawn),12-Hydroxyoctadecanoic acid,-6.715
C[C@@H]1O[C@@H](O[C@H]2[C@H](Oc3cc(O)c4c(c3)O[C@H](c3ccc(O)cc3)CC4=O)O[C@H](CO)[C@@H](O)[C@@H]2O)[C@H](O)[C@H](O)[C@H]1O,Naringin,-12.52
CC(C)Nc1ccccc1,N-Isopropylaniline,-1.523
O=C(OCC1CCC2OC2C1)C1CCC2OC2C1 (stereo not drawn),ECC,-4.824
Clc1cccc(-c2cc(Cl)c(Cl)c(Cl)c2Cl)c1Cl,"2,2',3,3',4,5-Hexachlorobiphenyl",-4.804
C/C=C/C(=O)C(C)CC (stereo partly drawn),(E)-5-Methyl-2-hepten-4-one,0.337
CO[Si](C)(C)CCl,Dimethyl(chloromethyl)methoxysilane,1.18
CCCCCCCCC(=O)OCC(C)(C)COC(=O)CCCCCCCC,Neopentyl dipelargonate,-5.244
CC(=O)O[Si](C)(OC(C)=O)OC(C)=O,Methylsilanetriyl triacetate,-1.2
C=CCCCCCCCCC(=O)OC,Methyl 10-undecenoate,0.244
CCCCCC(C)(C)OC,2-Methoxy-2-methylheptane,0.929
CCCCCCCCCc1cc(C)cc(Cc2cc(C)cc(CCCCCCCCC)c2O)c1O,"Phenol, 2,2'-methylenebis[4-methyl-6-nonyl-",-4.658
CC(C)(CO)Cc1ccccc1,Dimethyl phenylpropanol,-0.4
CCCCCCCC(=O)N(C)C,"N,N-Dimethyloctanamide",-1.648
c1ccc(C(c2ccccc2)(c2ccccc2)N2CCOCC2)cc1,Trifenmorph,-6.854
CO[Si](CC(C)C)(OC)C(C)C,"Silane, dimethoxy(1-methylethyl)(2-methylpropyl)-",0.364
CCC=C1OC(=O)c2ccccc21,3-Propylidenephthalide,-3.524
C[Si]1(CCC(F)(F)F)O[Si](C)(CCC(F)(F)F)O[Si](C)(CCC(F)(F)F)O1 (stereo not drawn),n/a,-0.213
CCCCCCCC/C=C/CCCCCCCC(=O)O.CCCCCCCC/C=C/CCCCCCCC(=O)O.CCCCCCCC/C=C/CCCCCCCCNCCCN,n/a,-4.949
CCCCOC(=O)CC(C)O (stereo not drawn),"Butanoic acid, 3-hydroxy-, butyl ester",-0.979
Clc1cc(Cl)c(-c2cccc(Cl)c2Cl)c(Cl)c1,"2,2',3,4',6'-Pentachlorobiphenyl",-4.275
CC(=CC(C)C)C(C)OC(C)(C)COC(=O)C1CC1 (stereo not drawn),n/a,-2.463
CC(C)(C)Cl,t-Butylchloride,2.482
CCN1CCCCCC1=O,"2H-Azepin-2-one, hexahydro-1-ethyl-",-1.295
C=C(C)C(=O)OCCOCCOCCCC,2-(2-Butoxyethoxy)ethyl methacrylate,-2.62
CCCCCCCCCC=CCC1CC(=O)OC1=O (stereo not drawn),(2-Dodecenyl)succinic anhydride,-3.347
CCC(C)C1CCCc2cccnc21 (stereo not drawn),"8-sec-Butyl-5,6,7,8-tetrahydroquinoline",-2.34

The first 7 entries again:

compound,name,vapor pressure (log10 mmHg)
Brc1cc(Br)c(Oc2c(Br)cc(Br)c(Br)c2Br)cc1Br,"2,2',3,4,4',5',6-Heptabromodiphenyl ether",-8.455
IC[C@H]1CC[C@H](CI)CC1,"trans-1,4-Bis(iodomethyl)cyclohexane",-5.576
CC1CC(OC(=O)c2ccccc2O)CC(C)(C)C1 (stereo not drawn),"3,3,5-Trimethylcyclohexyl salicylate",-3.98
CCCCC(CC)CCC(C)c1ccc2cccnc2c1O (stereo not drawn),"8-Quinolinol, 7-(4-ethyl-1-methyloctyl)-",-4.811
CCCC(C)C(=O)OCC (stereo not drawn),Ethyl 2-methylpentanoate,0.754
O=C=NCCCCCN=C=O,n/a,-1.62
CCCOC(F)(F)C(F)(F)C(F)(F)C(F)(F)F,"1,1,1,2,2,3,3,4,4-Nonafluoro-4-propoxybutane",1.711

Data: OPERA 2.9 data sets, kmansouri/OPERA on GitHub.